We go through one compound from patent EP1951748B1, “HEPATITIS C VIRUS VARIANTS” (Vertex Pharmaceuticals, Inc., priority 2005, dated 2007).

Each structure is given as a SMILES string. Values joined by “and” are separate entries in the source; they are usually repeats but may differ in a detail not shown here. Identical values can stand only once.

For the assay, the system named is genotype 1 HCV. Briefly: Phase 1b clinical trial (Study VX04-950-101), plasma HCV RNA. As to conditions: 14 days, one value per subject.

With `CCC[C@H](NC(=O)[C@@H]1[C@H]2CCC[C@H]2CN1C(=O)[C@@H](NC(=O)[C@@H](NC(=O)c1cnccn1)C1CCCCC1)C(C)(C)C)C(=O)C(=O)NC1CC1` [VX-950], the “Δ in VL (Log change in HCV RNA from nadir to Day 14 (end of dosing))” value runs as follows: (dose 450 (mg q8h)) 2.08 and 2.56 and 2.09; (dose 750 (mg q8h)) 2.35; (dose 1250 (mg q12h)) 0.86 and 2.50 and 2.25.
